Assay: Non-compartmental pharmacokinetics of midazolam and metabolites in plasma after discontinuation of MDZ infusion (LC-MS/MS)
Type: in vivo, human
Method: The PK parameters were obtained using a non-compartmental method with Phoenix WinNonlin (version 8.3.5; Certara, USA). […] The AUC from time 0 to infinity (AUCinf) was calculated as AUClast + Clast/λz, where Clast is the last measurable concentration and λz is the elimination rate constant. The mean residence time was calculated as […]. The estimated t1/2 was calculated from λz based on a previously reported equation[12].
All samples were immediately frozen and stored at –70 ℃ after centrifugation with 3,000 rpm for 10 min and then sent to the Nutrition Food Microbiology Laboratory at Chungnam National University (http://nfml.kr/) to determine the concentration of midazolam and its metabolites using liquid chromatography with tandem mass spectrometry analysis.
The sample preparation method was performed as previously described with some modifications. A 20 µL of sample was mixed with 180 µL of 80% methanol, followed by protein precipitation at 4 °C for 30 min. Subsequently, the supernatant was harvested and added to 1800 µL of distilled water. The pre-treated samples were loaded onto an Oasis HLB Vac RC cartridge (30 mg, 20 cc, Waters) that had been preconditioned with 6 mL of methanol and 6 mL of distilled water. The cartridge was washed with 6 mL distilled water and sequentially eluted with methanol (4 mL). The eluted samples were dried using an evaporator and resuspended with 0.2 mL of methanol for analysis.

Which “t1/2 (elimination half-life)” value (after discontinuation of MDZ infusion, mean ± SD) does the source give for midazolam glucuronide [MDZ-Glu] here?
The value was 11.4 ± 17.0 h.

What about the AUClast (plasma, 0 to 24 h after discontinuation of MDZ infusion, relative concentration, arithmetic mean ± SD) of the same substance?
The AUClast was 2175.6 ± 2212.3 h*ppm.

What about the AUCinf (plasma, time 0 to infinity after discontinuation of MDZ infusion, relative concentration, mean ± SD) of the same substance?
Its AUCinf is 3158.5 ± 2887.2 h*ppm.
